Test results taken from ChEMBL document CHEMBL4402526, “Design and Synthesis of Fungal-Selective Resorcylate Aminopyrazole Hsp90 Inhibitors” (J Med Chem, 2020).

assay: Displacement of Cy3-labeled geldanamycin from HSP90 in Candida albicans clinical isolate 2 cell lysate measured after […] by fluorescence polarization assay; assay type: subcellular

In order of falling EC50:
1. COc1ccc(Cn2nc(C(C)(C)C)cc2Nc2cc(O)cc(O)c2C(=O)N2Cc3ccccc3C2)cc1  816 nM
2. Cn1nccc1Nc1cc(O)cc(O)c1C(=O)N1Cc2cccnc2C1  624 nM
3. COc1ccc(Cn2ncc(-c3ccccc3)c2Nc2cc(O)cc(O)c2C(=O)N2Cc3ccccc3C2)cc1  615 nM
4. COc1ccc(Cn2ncc(Cc3ccccc3)c2Nc2cc(O)cc(O)c2C(=O)N2Cc3ccccc3C2)cc1  465 nM
5. Cn1nc(-c2ccccc2)cc1Nc1cc(O)cc(O)c1C(=O)N1Cc2cccnc2C1  395 nM
6. CC(C)(C)n1nc(-c2ccccc2)cc1Nc1cc(O)cc(O)c1C(=O)N1Cc2cccnc2C1  379 nM
7. Cn1nccc1Nc1cc(O)cc(O)c1C(=O)N1Cc2cn[nH]c2C1  377 nM
8. CC(C)(C)n1nc(-c2ccccc2)cc1Nc1cc(O)cc(O)c1C(=O)N1Cc2cn[nH]c2C1  182 nM
9. COc1ccc(Cn2ncc(C(C)C)c2Nc2cc(O)cc(O)c2C(=O)N2Cc3ccccc3C2)cc1  147 nM
10. O=C(c1c(O)cc(O)cc1Nc1ccnn1Cc1cccnc1)N1Cc2cccnc2C1  143 nM
11. Cc1ccc(Cn2nc(C)cc2Nc2cc(O)cc(O)c2C(=O)N2Cc3ccccc3C2)cc1  121 nM
12. O=C(c1c(O)cc(O)cc1Nc1ccnn1Cc1ccco1)N1Cc2cccnc2C1  80 nM
13. CC(C)n1nccc1Nc1cc(O)cc(O)c1C(=O)N1Cc2ccccc2C1  76 nM
14. O=C(c1c(O)cc(O)cc1Nc1cc(-c2ccccc2)nn1C1CCCCC1)N1Cc2cccnc2C1  59 nM
15. O=C(c1c(O)cc(O)cc1Nc1cc(-c2ccccc2)nn1C1CCCCC1)N1Cc2cn[nH]c2C1  34 nM
